# Cyclic peptide permeability, from CycPeptMPDB

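Conditions beyond the assay type are not listed; see the original paper. Other peptides of the study may be missing here. Entries at the database's floor value (log10 P of -10) are not listed.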

PAMPA measures passive passage through an artificial lipid membrane. Permeability is in 10^-6 cm/s, converted from the database's log10 values; higher is more permeable.

compound	PAMPA (10^-6 cm/s)
CCCC[C@@H]1NC(=O)[C@H](CC(C)C)N(C)C(=O)CN(CCOc2ccccc2)C(=O)[C@H](CC(C)C)NC(=O)CN(CCCOC(C)C)C(=O)[C@H]2CCCN2C1=O	3.2
CCCCCN1CC(=O)N(C)[C@@H](CC(C)C)C(=O)N[C@@H](CCCC)C(=O)N2CCC[C@@H]2C(=O)N(CC(C)C)CC(=O)N[C@@H](CC(C)C)C1=O	2.9
CCCC[C@@H]1NC(=O)[C@H](CC(C)C)N(C)C(=O)CN(CCCN2CCCC2=O)C(=O)[C@H](CC(C)C)NC(=O)CN(Cc2cc(CC(C)C)on2)C(=O)[C@H]2CCCN2C1=O	1.9
CCCC[C@@H]1NC(=O)[C@H](CC(C)C)N(C)C(=O)CN(CCc2cccnc2)C(=O)[C@H](Cc2ccccc2)NC(=O)CN(CCC)C(=O)[C@H]2CCCN2C1=O	2.6
CCCC[C@@H]1NC(=O)[C@H](CC(C)C)N(C)C(=O)CN(CCOc2ccccc2)C(=O)[C@H](Cc2ccc3ccccc3c2)NC(=O)CN(CCCOC(C)C)C(=O)[C@H]2CCCN2C1=O	0.16
CCCC[C@@H]1NC(=O)[C@H](CC(C)C)N(C)C(=O)CN(CCCN2CCCC2=O)C(=O)[C@H](CC(C)C)NC(=O)CN(CCCOC(C)C)C(=O)[C@H]2CCCN2C1=O	0.34
CCCC[C@@H]1NC(=O)[C@H](CC(C)C)N(C)C(=O)CN(CCc2cccnc2)C(=O)[C@H](C)NC(=O)CN(CC(C)C)C(=O)[C@H]2CCCN2C1=O	0.29
CCCC[C@@H]1NC(=O)[C@H](CC(C)C)N(C)C(=O)CN(CCCN2CCCC2=O)C(=O)[C@H](Cc2ccc3ccccc3c2)NC(=O)CN(CC)C(=O)[C@H]2CCCN2C1=O	1.4
CCCC[C@@H]1NC(=O)[C@H](CC(C)C)N(C)C(=O)CN(CCCc2cnn(C)c2)C(=O)[C@H](C)NC(=O)CN(Cc2ccccc2Cn2cccn2)C(=O)[C@H]2CCCN2C1=O	0.22
CCCC[C@@H]1NC(=O)[C@H](CC(C)C)N(C)C(=O)CN(CCOC)C(=O)[C@H](C)NC(=O)CN(CCN2CCOCC2)C(=O)[C@H]2CCCN2C1=O	0.0076
CCCC[C@@H]1NC(=O)[C@H](CC(C)C)N(C)C(=O)CN(CCOc2ccccc2)C(=O)[C@H](Cc2ccccc2)NC(=O)CN(CC)C(=O)[C@H]2CCCN2C1=O	3.4
CCCC[C@@H]1NC(=O)[C@H](CC(C)C)N(C)C(=O)CN(CCc2cccnc2)C(=O)[C@H](Cc2ccc3ccccc3c2)NC(=O)CN(Cc2ccc3c(c2)OCO3)C(=O)[C@H]2CCCN2C1=O	0.038

Excerpt, the final 2 entries:

| compound | PAMPA (10^-6 cm/s) |
|---|---|
| CCCC[C@@H]1NC(=O)[C@H](CC(C)C)N(C)C(=O)CN(CCOc2ccccc2)C(=O)[C@H](Cc2ccccc2)NC(=O)CN(CC)C(=O)[C@H]2CCCN2C1=O | 3.4 |
| CCCC[C@@H]1NC(=O)[C@H](CC(C)C)N(C)C(=O)CN(CCc2cccnc2)C(=O)[C@H](Cc2ccc3ccccc3c2)NC(=O)CN(Cc2ccc3c(c2)OCO3)C(=O)[C@H]2CCCN2C1=O | 0.038 |

Collected by the curators of CycPeptMPDB (Li et al. 2023) from Furukawa et al. 2016, doi:10.1021/acs.jmedchem.6b01246.